Experimental data as given in US7160890B2, “Compounds specific to adenosine A3 receptor and uses thereof” (OSI Pharmaceuticals, Inc., priority 1999, dated 2007).

Protein sequences, listed by entry. Tags and fused reporters are not part of them.
UniProt P29275, whole entry: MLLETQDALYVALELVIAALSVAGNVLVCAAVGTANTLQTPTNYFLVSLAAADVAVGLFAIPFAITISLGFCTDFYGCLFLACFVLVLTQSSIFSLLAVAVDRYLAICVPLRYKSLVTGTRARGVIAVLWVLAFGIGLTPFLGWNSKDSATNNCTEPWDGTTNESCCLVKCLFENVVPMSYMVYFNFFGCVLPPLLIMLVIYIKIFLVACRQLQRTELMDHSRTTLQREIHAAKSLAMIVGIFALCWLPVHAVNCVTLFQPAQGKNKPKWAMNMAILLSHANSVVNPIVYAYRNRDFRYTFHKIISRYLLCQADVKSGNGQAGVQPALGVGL

Molecular target: human A2b receptor subtype (Homo sapiens, UniProt P29275)
Experiment: Adenosine 2b receptor subtype competition radioligand binding, [3H]DPCPX, HEK293 membranes
Conditions: Table 13, concentration not given

For Cc1[nH]c2nc(-c3ccccc3)nc(N[C@H]3CC[C@H](O)CC3)c2c1C, the “Binding A2b, value given in %” value was 30%.
